Results on one molecule are retold here after ChEMBL document CHEMBL5614424, “Natural Product-Inspired Discovery of Naphthoquinone-Furo-Piperidine Derivatives as Novel STAT3 Inhibitors for the Treatment of Triple-Negative Breast Cancer” (J Med Chem, 2024).

Amino acid sequences for entries named in this document (tags omitted).
UniProt P40763, whole entry: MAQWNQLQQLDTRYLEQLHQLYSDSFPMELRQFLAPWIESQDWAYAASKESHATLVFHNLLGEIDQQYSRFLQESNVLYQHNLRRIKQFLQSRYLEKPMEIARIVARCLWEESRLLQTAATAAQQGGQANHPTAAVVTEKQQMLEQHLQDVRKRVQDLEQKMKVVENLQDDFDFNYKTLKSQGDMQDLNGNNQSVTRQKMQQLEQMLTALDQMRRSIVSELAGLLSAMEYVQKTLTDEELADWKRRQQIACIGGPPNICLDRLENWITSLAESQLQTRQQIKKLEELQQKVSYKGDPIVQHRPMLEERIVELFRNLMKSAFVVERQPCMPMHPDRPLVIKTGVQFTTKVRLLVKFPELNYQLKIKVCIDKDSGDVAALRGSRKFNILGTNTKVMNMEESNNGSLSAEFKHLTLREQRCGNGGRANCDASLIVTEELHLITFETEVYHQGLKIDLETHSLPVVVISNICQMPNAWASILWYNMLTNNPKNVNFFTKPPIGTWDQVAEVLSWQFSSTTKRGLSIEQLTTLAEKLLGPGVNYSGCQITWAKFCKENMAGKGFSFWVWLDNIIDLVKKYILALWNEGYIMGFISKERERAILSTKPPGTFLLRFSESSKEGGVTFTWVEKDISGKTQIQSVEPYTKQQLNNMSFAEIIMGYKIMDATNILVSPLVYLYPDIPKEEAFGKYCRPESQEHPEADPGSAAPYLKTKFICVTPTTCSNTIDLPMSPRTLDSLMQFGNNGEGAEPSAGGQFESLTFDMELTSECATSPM

The experiment deals with Signal transducer and activator of transcription 3 (Homo sapiens) (UniProt P40763). Description: Inhibition of STAT3 activation in human MDA-MB-231 cell assessed as decrease in phosphorylated STAT1 (Tyr727) level at 2.5 uM measured after 24 hrs by Western blot analysis. The class given is cell-based.

Active and inactive are the calls of the source. No cut-off for these calls is given here.

Turning to `CC(=O)c1cc2c(o1)C(=O)c1ccccc1C2=O` [NAPABUCASIN], the inhibition result was “inactive”.
